In PMC3443740 (Journal of immunology (Baltimore, Md. : 1950), 2012):

Columns and labels:
phospho Tyr705 STAT3 = details: BMDMs, 1 h pre-incubation, 100 ng/ml IL-10 30 min
phospho-Y701 STAT1 = details: BMDMs, 500 Units/ml IFNβ 30 min

SMILES: N#CC[C@H](C1CCCC1)n1cc(-c2ncnc3[nH]ccc23)cn1 [Ruxolitinib]
- concentration required to completely inhibit IL-10 induced STAT3 phosphorylation (phospho Tyr705 STAT3): 0.5 µM
- concentration required to block IFNβ induced STAT1 phosphorylation compared with IL-10 induced STAT3 phosphorylation (phospho-Y701 STAT1): A similar concentration
